# Binding of CDR-mutated scFvs to a peptide of the spike HR2 region

Reference: Li et al. 2023, doi:10.1038/s41467-023-39022-2. File: FLAb, binding data.

Target: peptide PDVDLGDISGINAS, taken from heptad repeat 2 (HR2) of SARS-CoV-2 spike.

Each scFv is VH, three GGGGS repeats, VL, as in the parent Ab-14, and differs from it in the CDRs of the heavy chain only.
VH: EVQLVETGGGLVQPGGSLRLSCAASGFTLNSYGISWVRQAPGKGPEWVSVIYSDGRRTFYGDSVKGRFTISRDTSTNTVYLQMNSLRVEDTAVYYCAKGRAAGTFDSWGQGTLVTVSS
VL: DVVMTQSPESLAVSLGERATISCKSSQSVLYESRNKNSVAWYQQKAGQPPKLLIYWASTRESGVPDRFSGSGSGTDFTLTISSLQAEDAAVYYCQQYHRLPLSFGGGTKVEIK

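The parent was found by panning a naive human phage display library on the peptide. This is the validation round: designs drawn from the data on random variants, tested in the same kind of assay. Several design methods are mixed in this list. In AlphaSeq, yeast of one mating type display the scFv and yeast of the other type display the target. Pairs that bind mate more often; barcode pairs of the diploids are counted by sequencing. Scores were corrected for input abundance and mapped to Kd with protein pairs of known affinity run in the same pool. The assay was run in six technical replicates.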

The parent's heavy chain CDRs are GFTLNSYGIS, VIYSDGRRTFYGDSVK, GRAAGTFDS; each variant's own CDRs replace them letter for letter. Variants here have at most six changes. Numbers give log10(Kd / nM), so 0 is 1 nM and 3 is 1 µM. Smaller is tighter. An entry "ND" has no value in the source: the pair was not observed among the diploids in that replicate. This suggests poor binding but is not conclusive. The authors' rule: three or more of the six replicates give a measured affinity, fewer mean a poor binder.

| CDR-H1 | CDR-H2 | CDR-H3 | log10 Kd, replicates | control signals |
|---|---|---|---|---|
| GFTLNSYGIS | VIYSDGRRTFYGDNVK | GNEAGTFDT | 0.39 -0.37 -0.35 -0.51 -0.45 -0.21 | 0/18 |
| GFTLNSYGIS | VIYSDGRRTFMGDSVK | GRARGTFDS | ND ND ND ND ND ND | 1/18 (3.56) |
| GFELNSYGIS | VIYSDGERTQYKDSVK | GRAAVTFDS | ND ND ND ND ND ND | 0/18 |
| GFKLNSYGIS | VIYSDGRRTFYGDSVK | GRAAGTFIS | ND ND ND ND ND ND | 0/18 |
| GFTLNSYGIS | VIYSDGMRTFYSDSVK | GATAGTFDS | 1.06 1.12 1.56 0.79 0.62 1.08 | 0/18 |
| GFTLNQYGIS | VIYSDGMRIFYSDSVK | GRAAGRFDS | ND ND ND ND ND ND | 0/18 |
| GFQLNSYGIS | VIYSDGRRTFYVDSVK | GRAAGTFDS | ND ND ND ND ND ND | 0/18 |
| GFSLNQYGIS | VIYSDGRRTFYKDSVK | GRTAGTFDS | 0.49 0.71 -0.21 0.04 0.17 0.49 | 0/18 |
| GFKLNSYGIS | VIYADGRRTFYGDSVK | GQAAGTFDS | 0.20 -0.03 0.21 -0.01 0.05 0.05 | 0/18 |
| GFTLNSYGIS | VIYSDGQRTFYGDSVR | GRAAGTFDT | ND ND ND ND 0.79 ND | 0/18 |
| GFTLNSYGIS | VIYSDGRRTAYSDSVK | GQAAGKFDS | ND ND ND ND ND ND | 1/18 (2.36) |
| GFDLNSYGIS | VIYSDGRRTFYQDQVK | GEAAGTFDS | 1.35 0.52 0.67 0.75 0.72 0.52 | 1/18 (2.13) |
| GFDLGSYGIS | VIYRDGRRTFYGDSVK | GRAAGTFDS | ND ND ND ND ND ND | 0/18 |
| GFTNNDYGIS | VIYSDGRRTFYSDDVK | GRAAGTFDS | ND ND 2.22 ND 2.73 ND | 0/18 |
| MFDLNSYGIS | VIYSDGRRTFYADSVK | GREAGTFDS | -0.36 0.92 -0.03 -0.28 -0.02 -0.35 | 0/18 |
| GFDLNEYGIS | VIYADGRRTAYIDSVK | GQAAGTFDS | -0.31 -0.55 -0.68 -0.75 -0.59 -0.60 | 0/18 |
| GFDLNSYGIS | VIYSDGRRTAYGDSVK | GRIAGTFDS | -0.67 -0.71 0.63 -0.43 -0.72 -0.29 | 0/18 |
| GFTLNSYGIS | VIYSDGMRTFYGDSVK | RRAAGTFDS | ND ND 0.70 2.04 2.22 0.55 | 0/18 |
| GFTLDSYGIS | VIYSDGRRTFYGDSVK | GREAGTFHS | ND ND ND ND ND ND | 0/18 |
| LFTLNEYGIS | VIYSDGRRTFYADSVK | GRTAGTFDS | 0.82 0.50 0.40 0.43 0.96 0.76 | 1/18 (2.10) |
| SFELNSYGIS | VIYSDGRRTFYTDSVK | GQTAGTFDS | 1.38 ND 1.13 0.92 2.77 ND | 1/18 (1.23) |
| GFPLNSYGIS | VIYSDGRRTFYDDSVK | GQLAGTFDS | 1.01 1.06 0.66 1.24 0.36 1.75 | 0/18 |
| GFTLNSYGIS | VIYSDGRRTFYGDSVK | GQVAGKFDS | ND ND ND ND ND ND | 0/18 |
| GFTLNDYGIS | VIYSDGRRTGYGDSVK | GRAELTFIS | ND ND ND ND ND 2.16 | 0/18 |
| GFTLDDYGIS | VIYSDGRRTFYGDSVK | GGAAGTFDS | 0.44 0.55 0.71 0.59 0.22 0.42 | 0/18 |
| GFDLNSYGIS | VIYSDGRRTAYGPNVK | GNAAGTFDS | 0.18 0.03 0.02 0.25 0.48 0.26 | 0/18 |
| GFTLNMYGIS | VIYADGRRTFYGGFVK | GQAPGTFDS | ND 1.35 2.89 0.77 0.81 0.86 | 0/18 |
| GFTLESYGIS | VIYSDGRRTFYGDFVK | GRAAGTFDS | ND ND ND ND ND ND | 0/18 |
| GFSLNEYGIS | VIYSDGRRTFYGDSVK | GQAAGTFDV | 0.29 -0.26 -0.19 -0.37 0.48 0.55 | 1/18 (1.06) |
| GFTLNEYGIS | VIYSDGRRTFYSDSVK | GRTAGTFDS | -0.23 -0.25 -0.53 -0.47 -0.50 -0.32 | 0/18 |
| GFDLNSYGIS | VIYSDGRRTFYADEVK | GQAAGTFDN | ND ND ND ND ND ND | 0/18 |
| GFDLMSYGIS | VIYSDGRRTFYADSVK | QRAAGTFDS | 0.76 1.58 1.87 2.57 1.53 1.33 | 1/18 (2.37) |
| GFTLRSYGIS | VIYSDGRRTHYGDSVK | GRAAGTFDS | ND ND ND ND ND ND | 0/18 |
| GFTLNSYGIS | VIYADGRRTFYTDSVK | GQAAGTFDS | -0.43 0.13 -0.14 -0.21 -0.09 0.69 | 0/18 |
| GFTLNSYGIS | VIYSDGRRTFYGDSVK | GRQAGTFIS | ND ND ND ND ND ND | 0/18 |
| GFHLNEYGIS | VIYSDGRRTFYGDSVK | GKTAGTFDS | 0.13 0.02 -0.10 -0.12 0.01 -0.03 | 0/18 |
| GFVLNDYGIS | VIYSDGRRTMYIDSVK | GRAAGTFDS | ND 1.24 0.59 2.07 1.21 1.13 | 1/18 (1.46) |
| GFELNSYGIS | VIYADGRRTFYGDSVK | GKAAGTFDW | ND 2.05 0.91 1.03 0.94 1.11 | 0/18 |
| GFTLNSYGIS | VIYSDGRRTFYGDDVK | GEAAGTFDS | 1.58 1.67 0.91 1.15 1.54 1.56 | 0/18 |

2 of these entries, quoted again:

| CDR-H1 | CDR-H2 | CDR-H3 | log10 Kd, replicates | control signals |
|---|---|---|---|---|
| SFELNSYGIS | VIYSDGRRTFYTDSVK | GQTAGTFDS | 1.38 ND 1.13 0.92 2.77 ND | 1/18 (1.23) |
| GFTLNSYGIS | VIYSDGMRTFYSDSVK | GATAGTFDS | 1.06 1.12 1.56 0.79 0.62 1.08 | 0/18 |

A sequence measured in both rounds can read differently, since the two assays cover different ranges. Nonspecific signal, from three strains lacking the peptide, appeared in 1% of pairings of all heavy chain designs, centred on 2.08 (5% of these signals below 0.84); values are not corrected for it. The control count says in how many pairings with the empty strains this scFv gave a signal, with their mean in brackets.